This data set can be described thus: Residual solvent content of human IgG and Albumin after freeze-drying with or without sodium ascorbate and/or mannitol (Example 5). Type of data set: physicochemical. The note with it: for residual moisture content: combination of ascorbate (100 mM) and mannitol (10%). As to the method:
When the solvent is water, the residual solvent content referenced herein refer to levels determined by the FDA approved, modified Karl Fischer method (Meyer and Boyd, Analytical Chem., 31:215-219, 1959; May, et al., J. Biol. Standardization, 10:249-259, 1982; Centers for Biologics Evaluation and Research, FDA, Docket No. 89D-0140, 83-93; 1990) or by near infrared spectroscopy.
Samples of human IgG and Albumin were each aliquoted into 3 ml Wheaton vials and partially stoppered with Stelmi stoppers. The vials were placed onto aluminum freeze-drying trays and placed into the freeze-dryer. Three independent freeze-drying runs were conducted for each protein. At the completion of each freeze-drying run, the vials were stoppered and sealed with aluminum seals until analyzed.
Human IgG—1 ml of reprocessed human IgG (10%) was added to vials. Additional vials contained (1) IgG+10% mannitol, (2) IgG+100 mM sodium ascorbate and (3) IgG+10% mannitol+100 mM sodium ascorbate.
Albumin—1 ml of either 12.5% or 25% Albumin was added to vials. Additional vials contained (1) Albumin+10% mannitol, (2) Albumin+100 mM sodium ascorbate and (3) Albumin+10% mannitol+100 mM sodium ascorbate.

The mark [1] stands for this setting: absence of ascorbate (protein alone).
[2] abbreviates: presence of 100 mM sodium ascorbate.

As to “25% albumin preparation: 1 ml of 25% Albumin per vial”, the residual moisture content is on record as 0.3%. In addition, under setting [1], the residual solvent content entry is on record as “about 0.55 % water”. For the same substance, the residual solvent content entry under setting [2] is “about 0.5 % water”. In addition, for the setting “presence of mannitol (10%)”, the residual solvent content stood at 0.35 % water.
The corresponding values for “12.5% albumin preparation: 1 ml of 12.5% Albumin per vial” are 0.3%, “about 1.25 % water”, “about 0.75 % water” and 0.3 % water.
